Experimental data published in BindingDB's records for doi:10.1021/jm00060a014 (Upjohn Laboratories, 1993).

Experiment: Binding affinity against [3H]8-OH-DPAT-labeled 5-hydroxytryptamine 1A receptor sites in bovine hippocampus

With `CCCN1CCC2c3c(O)cccc3CC[C@@H]21` (some centres not stated) [3-Propyl-2,3,3a,4,5,9b-hexahydro-1H-benzo[e]indol-9-ol] the Ki was 3 nM.
Work on `CCCN1CCC2c3c(O)cccc3CCC21` (racemic) [3-Propyl-2,3,3a,4,5,9b-hexahydro-1H-benzo[e]indol-9-ol] yielded a Ki of 1.4 nM.
